Experimental data as given in patent US4849207A, “Porphyrin derivatives” (Nihon Medi-Physics Co., Ltd., priority 1985, dated 1989).

System: cancer cells of the pancreas
Experiment: Laser irradiation to an extracted organ (excited fluorescent spectrum)
Type: in vivo, golden hamsters
Conditions: golden hamster, 5 mg i.v., after 24 hours
Description: Laser irradiation to an extracted organ (excited fluorescent spectrum):
To each of golden hamsters (five animals being grouped) transplaned with nitrosoamine-induced cancer cells of the pancreas, DTPA-10EG PPB-Me (5 mg) diluted with 0.1M citrate buffer (1 ml) was administered intravenously 14 to 21 days after the transplantation, and cancer cells and other organs were extracted. To each of the organs as extracted, N2 -pulsed laser (N2 337 nm, 2 ns 400-1000 nm) was irradiated, and excited fluorescent spectrum was measured after 24 hours. Taking the peak wavelength of NADH at 470 nm as the standard (i.e. 1), the wavelength at 600 to 900 nm was calculated. The results are shown in Table 1, from which it is understood that a porphyrin-related substance has a remarkably selective affinity to cancer cells.

## Ethylene glycol In-mono-diethylenetriaminetetraacetic acid-acetate mono-7c-pyropheophorbate [In--DTPA--7EG pyroPPB]
  excited fluorescence at 600 to 900 nm relative to NADH peak at 470 nm (=1): Cancer: 1.25
  excited fluorescence at 600 to 900 nm relative to NADH peak at 470 nm (=1): Kidney: 0.42
  excited fluorescence at 600 to 900 nm relative to NADH peak at 470 nm (=1): Liver: 0.52
  excited fluorescence at 600 to 900 nm relative to NADH peak at 470 nm (=1): Lung: 0.47
  excited fluorescence at 600 to 900 nm relative to NADH peak at 470 nm (=1): Serum: 0.45

## Ethylene glycol In-monodiethylenetriaminetetraacetic acid-acetate mono-10b-methylpheophorbate [In--DTPA--10EG PPB--Me]
  excited fluorescence at 600 to 900 nm relative to NADH peak at 470 nm (=1): Cancer: 1.03
  excited fluorescence at 600 to 900 nm relative to NADH peak at 470 nm (=1): Kidney: 0.12
  excited fluorescence at 600 to 900 nm relative to NADH peak at 470 nm (=1): Liver: 0.43
  excited fluorescence at 600 to 900 nm relative to NADH peak at 470 nm (=1): Lung: 0.19
  excited fluorescence at 600 to 900 nm relative to NADH peak at 470 nm (=1): Serum: 0.34
